One compound from publication PMC3726002 (Bioorganic & medicinal chemistry letters, 2011) can be followed below.

Chains of the proteins cited; added tags and fusions are not shown. Residues count along the entry.
UniProt P43144, 26-479: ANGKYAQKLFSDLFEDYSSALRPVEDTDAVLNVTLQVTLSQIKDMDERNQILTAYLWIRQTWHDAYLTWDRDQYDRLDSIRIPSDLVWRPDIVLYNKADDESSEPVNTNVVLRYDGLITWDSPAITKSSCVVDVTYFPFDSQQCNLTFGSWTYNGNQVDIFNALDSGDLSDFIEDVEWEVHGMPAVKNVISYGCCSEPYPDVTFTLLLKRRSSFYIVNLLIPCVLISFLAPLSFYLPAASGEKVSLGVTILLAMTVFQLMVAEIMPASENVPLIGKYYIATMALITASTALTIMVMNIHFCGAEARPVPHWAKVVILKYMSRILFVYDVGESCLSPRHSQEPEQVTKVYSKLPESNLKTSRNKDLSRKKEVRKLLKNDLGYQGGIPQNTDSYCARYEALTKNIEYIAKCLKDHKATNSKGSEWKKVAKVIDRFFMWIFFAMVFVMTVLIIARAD
UniProt Q9JLB5, 25-447: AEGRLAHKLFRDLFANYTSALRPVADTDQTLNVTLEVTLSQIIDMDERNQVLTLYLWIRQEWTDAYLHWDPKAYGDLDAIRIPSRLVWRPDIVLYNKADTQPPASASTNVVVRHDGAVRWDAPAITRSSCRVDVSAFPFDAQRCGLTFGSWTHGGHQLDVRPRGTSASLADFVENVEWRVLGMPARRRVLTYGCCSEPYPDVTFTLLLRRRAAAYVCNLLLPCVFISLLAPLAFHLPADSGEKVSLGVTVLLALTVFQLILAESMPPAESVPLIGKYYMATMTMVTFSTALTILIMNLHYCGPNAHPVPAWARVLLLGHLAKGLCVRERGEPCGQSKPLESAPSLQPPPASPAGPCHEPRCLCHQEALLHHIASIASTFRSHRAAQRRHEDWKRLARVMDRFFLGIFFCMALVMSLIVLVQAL

For the assay, the target named is α9α10 nAChRs (Rattus norvegicus, UniProt P43144+Q9JLB5). Type of assay: cell-based. The conditions noted are these: ratio of α7 to α9α10 IC50.

For the compound `C(#Cc1cc(C#CCCC[n+]2cccc(-c3ccccc3)c2)cc(C#CCCC[n+]2cccc(-c3ccccc3)c2)c1)CCC[n+]1cccc(-c2ccccc2)c1.[Br-].[Br-].[Br-]` [Compound 9e], the “selectivity for the α9α10 subtype vs. the α7 subtype” value was determined as 109 fold.
